Like-named read-outs stand apart in the source and are kept apart here.
Biological target: TYK2 (Homo sapiens, UniProt P29597)
Test: TYK2 MSD degradation in OCI-LY10 cells
[1] = TYK2 degradation in OCI-LY10 cells, 4 to 24 hours incubation
[2] = read-out: TYK2 MSD OCI-LY10 Rel-DC50, TYK2 degradation in OCI-LY10 cells, 4 to 24 hours incubation
[3] = OCI-LY10 cells, 4 to 24 hours incubation
[4] = read-out: TYK2 MSD OCI-LY10 Rel-DC50, OCI-LY10 cells, 4 to 24 hours incubation
[5] = OCI-LY10 cells, incubated 4 to 24 hours
[6] = read-out: TYK2 MSD OCI-LY10 Rel-DC50, OCI-LY10 cells, incubated 4 to 24 hours

Protein sequences, listed by entry. Tags and fused reporters are not part of them.
UniProt P29597, whole entry: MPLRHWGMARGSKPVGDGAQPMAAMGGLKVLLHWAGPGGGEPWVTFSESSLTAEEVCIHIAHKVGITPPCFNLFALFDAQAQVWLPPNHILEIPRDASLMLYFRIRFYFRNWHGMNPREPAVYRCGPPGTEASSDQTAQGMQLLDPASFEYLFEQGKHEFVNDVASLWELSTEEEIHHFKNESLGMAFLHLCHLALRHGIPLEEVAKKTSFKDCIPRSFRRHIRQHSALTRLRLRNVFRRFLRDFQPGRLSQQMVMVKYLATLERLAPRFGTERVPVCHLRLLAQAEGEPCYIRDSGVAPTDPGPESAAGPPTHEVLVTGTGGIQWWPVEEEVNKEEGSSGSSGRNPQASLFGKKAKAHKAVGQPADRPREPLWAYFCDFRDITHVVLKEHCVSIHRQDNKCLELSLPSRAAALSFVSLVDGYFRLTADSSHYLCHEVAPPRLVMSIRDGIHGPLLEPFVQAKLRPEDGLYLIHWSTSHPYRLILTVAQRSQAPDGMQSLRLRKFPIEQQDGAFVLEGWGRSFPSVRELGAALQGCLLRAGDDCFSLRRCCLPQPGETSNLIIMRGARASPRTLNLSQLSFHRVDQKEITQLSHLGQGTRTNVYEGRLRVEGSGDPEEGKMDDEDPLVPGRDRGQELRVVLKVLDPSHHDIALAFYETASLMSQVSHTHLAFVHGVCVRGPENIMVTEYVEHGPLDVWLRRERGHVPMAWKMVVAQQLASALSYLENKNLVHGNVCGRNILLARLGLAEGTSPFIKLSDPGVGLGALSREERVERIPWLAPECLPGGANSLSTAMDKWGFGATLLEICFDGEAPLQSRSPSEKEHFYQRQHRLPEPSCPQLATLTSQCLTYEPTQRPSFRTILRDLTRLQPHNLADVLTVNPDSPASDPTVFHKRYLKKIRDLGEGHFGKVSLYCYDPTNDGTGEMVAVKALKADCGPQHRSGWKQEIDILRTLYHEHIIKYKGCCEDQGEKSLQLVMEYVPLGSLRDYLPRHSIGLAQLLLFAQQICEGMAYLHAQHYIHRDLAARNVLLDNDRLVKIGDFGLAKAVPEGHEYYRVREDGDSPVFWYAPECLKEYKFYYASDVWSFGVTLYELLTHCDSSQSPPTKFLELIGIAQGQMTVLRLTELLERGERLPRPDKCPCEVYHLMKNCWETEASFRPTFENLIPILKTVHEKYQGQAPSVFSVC

Structure (SMILES)	TYK2 MSD OCI-LY10 Dmax % [1]	DC50 [2] [nM]	further results
CNc1cc(N2CCc3c(CN4CCC5(CCN(CC6CCN(C(=O)c7cc(C)c(Cl)c(N8CCC(=O)NC8=O)c7)CC6)CC5)C(F)(F)C4)cccc32)nn2c(C(=O)N[C@@H]3CC[C@H]3OC)cnc12	A (A (>90%))	< 1	–
CNc1cc(N2CCc3c(-c4ccc([C@@H](C)N5CC6(CCN(C(=O)c7ccc(Cl)c(N8CCC(=O)NC8=O)c7)CC6(F)F)C5)cn4)cccc32)nn2c(C(=O)N[C@@H]3CC[C@H]3OC)cnc12	A (A (>90%))	< 1	–
CNc1cc(N2CCc3c(-c4ccc(CN5CCC6(CCN(C(=O)c7ccc(C)c(N8CCC(=O)NC8=O)c7)CC6)C(F)(F)C5)cn4)cccc32)nn2c(C(=O)N[C@@H]3C[C@@H]3F)cnc12	–	–	TYK2 MSD OCI-LY10 Dmax % [3]: B (B (90 to >75%)); DC50 [4]: < 1 nM
CNc1cc(N2CCc3c(-c4ccc(CN5CCC6(CCN(C(=O)c7ccc(OC)c(N8CCC(=O)NC8=O)c7)CC6)C(F)(F)C5)cn4)cccc32)nn2c(C(=O)N[C@@H]3C[C@@H]3F)cnc12	–	–	TYK2 MSD OCI-LY10 Dmax % [3]: B (B (90 to >75%)); DC50 [4]: < 10 nM
CNc1cc(N2CCc3c2cccc3C23CC(CN4CC5(CCN(C(=O)c6cc(N7CCC(=O)NC7=O)c(Cl)c(C)n6)CC5(F)F)C4)(C2)C3)nn2c(C(=O)N[C@@H]3CC[C@H]3OC)cnc12	A (A (>90%))	< 1	–
CNc1cc(N2CCc3c(CN4CC[C@H](N5CCC6(CCN(C(=O)c7cc(N8CCC(=O)NC8=O)c(Cl)cn7)CC6)CC5)C(F)(F)C4)cccc32)nn2c(C(=O)N[C@@H]3CC[C@H]3OC)cnc12	A (A (>90%))	< 1	–
CNc1cc(N2CCc3c(-c4ccc(CN5CC6(CCN(C(=O)c7ccc(Cl)c(N8CCC(=O)NC8=O)c7)CC6(F)F)C5)cn4)cc(Cl)cc32)nn2c(C(=O)N[C@@H]3C[C@@H]3F)cnc12	A (A (>90%))	< 1	–
CNc1cc(N2CCc3c(CN4CCC(N5CCC6(CCN(C(=O)c7ccc(Cl)c(N8CCC(=O)NC8=O)c7)C6)CC5)C(F)(F)C4)cccc32)nn2c(C(=O)N[C@@H]3C[C@@H]3F)cnc12 (stereo partly shown)	A (A (>90%))	< 1	–
CNc1cc(N2CC3(CCN(C4CCN(c5ccc6c(c5)n(C)c(=O)n6C5CCC(=O)NC5=O)CC4)CC3)c3ccccc32)nn2c(C(=O)NC3CC3)cnc12 (stereo not shown)	D (D (<50%))	> 100	–
CNc1cc(N2CCc3c(CN4CC[C@H](CN5CCC6(CC5)CCN(C(=O)c5cc(C)c(Cl)c(N7CCC(=O)NC7=O)c5)CC6)C(F)(F)C4)cccc32)nn2c(C(=O)N[C@@H]3CC[C@H]3OC)cnc12	–	–	TYK2 MSD OCI-LY10 Dmax % [5]: A (A (>90%)); DC50 [6]: < 1 nM
CNc1cc(N2CCc3c(N4CCC(CN5CC6(CCN(C(=O)c7cc(N8CCC(=O)NC8=O)c(Cl)c(C)n7)CC6(F)F)C5)CC4)cccc32)nn2c(C(=O)N[C@@H]3CC[C@H]3OC)cnc12	B (B (90 to >75%))	< 1	–
CNc1cc(N2CCc3c(N4CCC[C@H](CN5CCN(c6ccc7c(c6)n(C)c(=O)n7C6CCC(=O)NC6=O)CC5)C4)cccc32)nn2c(C(=O)NC3CC3)cnc12 (stereo partly shown)	D (D (<50%))	> 100	–
CNc1cc(N2CCc3c(CN4CCC(CN5CCN(C(=O)c6ccc(Cl)c(C7CCC(=O)NC7=O)c6)CC5)CC4)cccc32)nn2c(C(=O)N[C@@H]3C[C@@H]3F)cnc12 (stereo partly shown)	–	–	TYK2 MSD OCI-LY10 Dmax % [3]: D (D (<50%)); DC50 [4]: < 10 nM
CNc1cc(N2CCc3c(-c4ncc(CN5CCC6(CCN(C(=O)c7cc(Cl)c(C)c(N8CCC(=O)NC8=O)c7)CC6)C(F)(F)C5)cc4F)cccc32)nn2c(C(=O)N[C@@H]3CC[C@H]3OC)cnc12	A (A (>90%))	< 10	–
CNc1cc(N2CCc3c(-c4ccc(CN5CCC(COc6ccc(C7CCC(=O)NC7=O)c(Cl)c6)CC5)cn4)cccc32)nn2c(C(=O)N[C@@H]3C[C@@H]3F)cnc12 (stereo partly shown)	–	–	TYK2 MSD OCI-LY10 Dmax % [3]: D (D (<50%)); DC50 [4]: > 100 nM
CNc1cc(N2CCc3c(-c4ncc([C@@H](C)N5CC6(CCN(C(=O)c7ccc(Cl)c(N8CCC(=O)NC8=O)c7)CC6(F)F)C5)cc4F)cccc32)nn2c(C(=O)N[C@@H]3CC[C@H]3OC)cnc12	A (A (>90%))	< 1	–
CNc1cc(N2CCc3c(CN4CC[C@@H](N5CCC6(CCN(C(=O)c7ccc(Cl)c(N8CCC(=O)NC8=O)c7)CC6)CC5)C(F)(F)C4)cc(F)cc32)nn2c(C(=O)N[C@@H]3CC[C@H]3OC)cnc12	A (A (>90%))	< 1	–
CNc1cc(N2CCc3c(N4CCC[C@@H](CN5CCN(c6ccc7c(c6)n(C)c(=O)n7C6CCC(=O)NC6=O)CC5)C4)cccc32)nn2c(C(=O)NC3CC3)cnc12 (stereo partly shown)	D (D (<50%))	> 100	–
CNc1cc(N2CCc3c(CN4CCC(N5CC6(CCN(c7ccc8c(c7)n(C)c(=O)n8C7CCC(=O)NC7=O)CC6)C5)C(F)(F)C4)cccc32)nn2c(C(=O)NC3CC3)cnc12 (stereo not shown)	B (B (90 to >75%))	< 1	–
CNc1cc(N2CCc3c(-c4ccc(N5CCC6(CC5)CN(Cc5ccc(C7CCC(=O)NC7=O)c(Cl)c5)C6)cn4)cccc32)nn2c(C(=O)N[C@@H]3C[C@@H]3F)cnc12 (stereo partly shown)	–	–	TYK2 MSD OCI-LY10 Dmax % [3]: D (D (<50%)); DC50 [4]: < 10 nM
CNc1cc(N2CCc3c(-c4ncc(CN5CC6(CCN(C(=O)c7cc(Cl)c(C)c(N8CCC(=O)NC8=O)c7)CC6(F)F)C5)cc4F)cccc32)nn2c(C(=O)N[C@@H]3CC[C@H]3OC)cnc12	A (A (>90%))	< 1	–
CNc1cc(N2CCc3c(-c4ccc(CN5CC6(CCN(C(=O)c7ccc(Cl)c(N8CCC(=O)NC8=O)c7)CC6(F)F)C5)cn4)cccc32)nn2c(C(=O)N[C@@H]3CC[C@H]3F)cnc12	–	–	TYK2 MSD OCI-LY10 Dmax % [3]: B (B (90 to >75%)); DC50 [4]: < 1 nM
CNc1cc(N2CCc3c([C@H]4CCN(CC5CCN(c6ccc7c(c6)n(C)c(=O)n7C6CCC(=O)NC6=O)CC5)C4)cccc32)nn2c(C(=O)NC3CC3)cnc12 (stereo partly shown)	C (C (75 to 50%))	< 1	–
CNc1cc(N2CCc3c(-c4ccc(CN5CCC(N6CCC(N(C)c7ccc(Cl)c(N8CCC(=O)NC8=O)c7)CC6)CC5)cn4)cccc32)nn2c(C(=O)N[C@@H]3CC[C@H]3OC)cnc12	A (A (>90%))	< 1	–
CNc1cc(N2CCc3c(N4CC[C@@H](CN5CCN(c6ccc7c(c6)n(C)c(=O)n7C6CCC(=O)NC6=O)CC5)C4)cccc32)nn2c(C(=O)NC3CC3)cnc12 (stereo partly shown)	C (C (75 to 50%))	< 1	–
CNc1cc(N2CCc3c(CN4CC[C@@H](CN5CCC6(CC5)CCN(C(=O)c5cc(C)c(Cl)c(N7CCC(=O)NC7=O)c5)CC6)C(F)(F)C4)cccc32)nn2c(C(=O)N[C@@H]3CC[C@H]3OC)cnc12	–	–	TYK2 MSD OCI-LY10 Dmax % [5]: A (A (>90%)); DC50 [6]: < 1 nM
CNc1cc(N2CCc3c(CN4CC[C@H](N5CCC6(CC5)CN(C(=O)c5cc(N7CCC(=O)NC7=O)c(Cl)c(C)n5)C6)C(F)(F)C4)cccc32)nn2c(C(=O)N[C@@H]3CC[C@H]3OC)cnc12	A (A (>90%))	< 1	–
CNc1cc(N2CCc3c(-c4ccc(OCCC5CCN(C(=O)c6ccc(Cl)c(N7CCC(=O)NC7=O)c6)CC5)cn4)cccc32)nn2c(C(=O)N[C@@H]3C[C@@H]3F)cnc12 [I-617]	C (C (75 to 50%))	< 10	–
CNc1cc(N2CCc3c(CN4CCC(N5CCC(C6CCN(C(=O)c7cc(Cl)c(C)c(N8CCC(=O)NC8=O)c7)CC6)CC5)C(F)(F)C4)cccc32)nn2c(C(=O)N[C@@H]3CC[C@H]3OC)cnc12 (stereo partly shown)	A (A (>90%))	< 1	–
